We go through 1 molecule from patent publication US20210290732A1, “GLP-1R and GCGR Agonists, Formulations, and Methods of Use” (Spitfire Pharma LLC, priority 2020, published 2021).

For orientation: AUC(0-inf) means total exposure, with the tail of the curve extrapolated. A lower AUC(0-inf) goes with low exposure. As usually defined, the Tmax is the time at which the peak concentration occurs. The term Cmax denotes the peak of the concentration-time curve. Broadly, the half-life is the time in which the quantity being followed falls by half. A low value points to rapid decline. By MRT is commonly meant the average time that molecules of a dose stay in the body.

A short description of this series: Ligand Concentrations, Single Dose, C57BL/6J Mice. An excerpt: Table printed on a drawing sheet, FIG. 9
Title: Ligand Concentrations, Single Dose, C57BL/6J Mice
The patent's description of the figure: FIG. 9.
First reader's note: Table is inset in a concentration-time plot; the plot legend gives the dose and route (10nmol/kg sc) for both substances.

Where [1] appears, read: C57BL/6J, mouse, in vivo, sc, 10 nmol/kg.

In the case of `CC[C@H](C)[C@H](NC(=O)[C@H](Cc1ccccc1)NC(=O)[C@H](CCC(=O)O)NC(=O)[C@@H]1CCCCNC(=O)CC[C@H](NC(=O)[C@H](CC(=O)O)NC(=O)[C@H](CC(C)C)NC(=O)[C@H](Cc2ccc(O)cc2)NC(=O)[C@H](CCCCN)NC(=O)[C@H](CO)NC(=O)[C@H](Cc2ccc(O)cc2)NC(=O)[C@H](CC(=O)O)NC(=O)[C@H](CO)NC(=O)[C@@H](NC(=O)[C@H](Cc2ccccc2)NC(=O)[C@@H](NC(=O)CNC(=O)[C@H](CCC(N)=O)NC(=O)C(C)(C)NC(=O)[C@@H](N)Cc2c[nH]cn2)[C@@H](C)O)[C@@H](C)O)C(=O)N[C@@H](CCCCNC(=O)[C@H]2O[C@@H](OCCCCCCCCCCCCCCCCCC(=O)O)[C@H](O)[C@@H](O)[C@@H]2O)C(=O)N[C@@H](C)C(=O)N[C@@H](C)C(=O)N1)C(=O)N[C@@H](CCC(N)=O)C(=O)N[C@@H](Cc1c[nH]c2ccccc12)C(=O)N[C@@H](CC(C)C)C(=O)N[C@@H](CC(C)C)C(=O)N[C@@H](CCC(N)=O)C(=O)N[C@H](C(N)=O)[C@@H](C)O` [ALT-801], the “AUC(0-inf)” value came to 2690 ng·h/mL and the time of peak concentration (Tmax) stood at 8 h. Under setting [1], the Cmax was 92 ng/mL and the half-life is 15 h. In addition, the “MRT” value (mouse, in vivo, sc) is listed as 22 h.
